Hits are enriched below; roughly 2.8% of the tested compounds scored in any of these assays.
MITF act: MITF TRPM1 promoter activation in melanoma cells | SK-MEL-5 TRPM1-promoter luciferase, 24 h; % of positive control, neutral wells = 0 | activation, % at 12.5 µM | 300,000 compounds, 0.75% hits;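 active means mean activation of at least 80% with every replicate also reaching 80%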;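 further: 0% = neutral control wells and 100% = parthenolide positive control wells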
miR122 inh: inhibitors of miR-122 in Huh7 cells; Huh7 miR-122 Renilla luciferase sensor, 48 h; neutral wells = 0, positive control = 100; AID 602342; 340,000 compounds, 0.3% hits; activation (reporter increase), % at 12.5 µM;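 active means mean replicate activation score at least 90 and every replicate individually at or above 90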;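 further: higher luciferase means less miR-122 activity so hits act as miR-122 inhibitors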
Wnt act: activates Wnt/beta-catenin signaling in a reporter cell assay; activator, plate reader; activation, % at 9.35 µM; 300,000 compounds, 1.2% hits; in the data active means activation above about 30%, passing the limit was not always enough;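 further: 0% = neutral control wells and 100% = positive control wells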
Yeast UUG start: alters start codon recognition fidelity in yeast; S. cerevisiae UUG-firefly luciferase reporter, luminescence/redox ratio; activity score, % at 18.7 µM; actives 0.13% (n = 350,000); AID 602363;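 active = replicate mean at a twofold rise or more, about +100% in these data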;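 also: firefly luciferase made from a UUG start codon reports start codon fidelity; reporter light over untreated wells divided by growth signal over untreated wells; some hits fall short of that in this replicate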
PglD DTNB: PglD (C. jejuni) enzyme inhibition; purified PglD enzyme, DTNB colorimetric CoA detection; inhibition, % at 12.5 µM; 360,000 compounds, 0.098% hits; AID 602405; in the data active means inhibition above about 16%, passing the limit was not always enough
esBAF inh: SWI/SNF esBAF complex inhibition; mouse ES cells, Bmi1-luciferase knock-in reporter, 24 h; 100% = twice the neutral-well signal; reporter increase, % at 12.5 µM; 350,000 compounds, 2% hits; in the data active means activation above about 40%;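 further: 0% = median of the plate's neutral control wells and 100% = double that signal; a rise in the Bmi1 reporter signal indicates esBAF inhibition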
Starred values were filed as active, the others as inactive; . = not tested or not shown; [ ] = dose if it differs, or a comment.

No.	Structure	MITF act	miR122 inh	Wnt act	Yeast UUG start	PglD DTNB	esBAF inh
1	Cc1cc2oc(C(=O)Nc3nonc3C)c(C)c2cc1Cl	54	-2	26	-3	0	44*
2	Cc1nonc1NC(=O)c1oc2ccc(F)cc2c1C	12	5	1	-12	3	19
3	C[C@H](CO)N1C[C@H](C)[C@@H](CN(C)Cc2ccc(C(=O)Nc3ccccc3N)cc2)Oc2ccc(NS(=O)(=O)c3cccs3)cc2CC1=O	.	14[16.7 µM]	.	-3	-4	-10
4	CN1C(=O)c2cc(NC(=O)NC3CCCC3)ccc2OC[C@@H]2O[C@H](CC(=O)NC3CCC3)CC[C@H]21	.	3[16.7 µM]	.	2	2	-4
5	CCN(C(=O)C=Cc1ccco1)c1ccccc1	-7	-10	204*	-20	0	5
6	Cc1nc(C(=O)Nc2ccccc2)sc1C(=O)Nc1ccccc1	86*	-2	1	5	2	54*
7	Cc1ccc(NC(=O)c2sc(N)nc2C)cc1	51	10	7	-23	8	50*
8	Cc1nc(N)sc1C(=O)Nc1ccccc1	.	3	1	-15	-1	19
9	C[C@@H]1CN([C@@H](C)CO)C(=O)c2cc(-c3ccccc3F)cnc2O[C@@H]1CN(C)C(=O)c1cnccn1	.	8[16.7 µM]	.	.	1	-2
10	Cc1noc(C)c1S(=O)(=O)Nc1ccc2c(c1)CC(=O)N([C@H](C)CO)C[C@H](C)[C@@H](CN(C)S(=O)(=O)c1c(C)noc1C)O2	.	-8[16.7 µM]	.	26	-3	3

Filtered by structure, those above with a halogen
No.	Structure	MITF act	miR122 inh	Wnt act	Yeast UUG start	PglD DTNB	esBAF inh
1	Cc1cc2oc(C(=O)Nc3nonc3C)c(C)c2cc1Cl	54	-2	26	-3	0	44*
2	Cc1nonc1NC(=O)c1oc2ccc(F)cc2c1C	12	5	1	-12	3	19
9	C[C@@H]1CN([C@@H](C)CO)C(=O)c2cc(-c3ccccc3F)cnc2O[C@@H]1CN(C)C(=O)c1cnccn1	.	8[16.7 µM]	.	.	1	-2

(list continues)
No.	Structure	MITF act	miR122 inh	Wnt act	Yeast UUG start	PglD DTNB	esBAF inh
11	O=S(=O)(c1ccc(NC(=S)Nc2ccc3c(c2)OCO3)cc1)N1CCOCC1	6	-9	.	-24	-5	45*
12	c1cncc(-c2csc(-c3cccnc3)n2)c1	25	-18	2	-16	-1	36
13	Clc1ccsc1-c1csc(-c2cccnc2)n1	11	3	.	-20	5	70*
14	c1cncc(-c2nc(-c3ccc4c(c3)OCO4)cs2)c1	85*	8	32*	-17	-5	52*
15	CCC(=O)N1C[C@H](O)COC[C@@H]2O[C@H](CC(=O)N3CCCCC3)CC[C@H]21	.	0[16.7 µM]	.	-2	4	-3
16	O=C(C[C@H]1C[C@H]2c3cc(NC(=O)NC4CCCC4)ccc3O[C@H]2[C@H](CO)O1)NCCN1CCCCC1	.	-2[16.7 µM]	.	-12	2	3
17	CCS(=O)(=O)N1Cc2ccccc2CC1C(=O)Nc1ccc(OC)c(OC)c1 (centres undefined)	-1	6	0	6	12	1
18	CCS(=O)(=O)N1Cc2ccccc2CC1C(=O)Nc1cccc(OC)c1 (centres undefined)	19	.	15	-1	4	53*
19	CCS(=O)(=O)N1Cc2ccccc2CC1C(=O)NCc1cccc(OC)c1 (centres undefined)	91*	-6	-2	-4	0	.
20	C[C@@H]1CN([C@@H](C)CO)S(=O)(=O)c2ccc(C#CC3CCCCC3)cc2O[C@H]1CN(C)C	.	-9[16.7 µM]	.	43	-3	1

No.	Structure	MITF act	miR122 inh	Wnt act	Yeast UUG start	PglD DTNB	esBAF inh
21	Cc1ccc(S(=O)(=O)Nc2ccc3c(c2)C(=O)N([C@H](C)CO)C[C@H](C)[C@H](CN(C)C(=O)c2ccccc2)OCCCC[C@@H](C)O3)cc1	.	2[16.7 µM]	.	31	-2	4
22	C[C@@H]1CN([C@@H](C)CO)C(=O)c2cccc(NC(=O)Nc3ccc(F)cc3)c2O[C@H]1CN(C)C(=O)Nc1ccc2c(c1)OCO2	.	2[16.7 µM]	.	2	-3	8
23	C[C@@H]1CN([C@H](C)CO)C(=O)c2cc(NS(=O)(=O)c3ccc(F)cc3)ccc2O[C@@H](C)CCCCO[C@H]1CN(C)Cc1ccccc1	.	0[16.7 µM]	.	12	-3	-6
24	COc1nc(-c2ccccc2)ccc1-c1noc(C)n1	.	4	50*	-17	-3	31
25	COCc1nc(-c2ccc(-c3ccccc3)nc2OC)no1	.	-1	49*	6	0	66*
26	CCc1nc(-c2ccc(-c3ccc(OC)cc3)nc2OC)no1	12	2	56*	-1	-5	10
27	COc1ccc(-c2ccc(-c3noc(C(C)C)n3)c(OC)n2)cc1	64	-2	.	-23	-6	35
28	Clc1ccc(-c2cc(CSc3ccccc3)on2)cc1	127*	27	-1	-15	.	22
29	c1ccc(SCc2cc(-c3ccccc3)no2)cc1	94*	-7	12	.	.	.

Source: PubChem BioAssay (Broad Institute)
